Laboratory results reported in patent US8034574B2, “Screening method for prokinetic agent” (Astellas Pharma Inc., priority 2006, dated 2011).

Amino acid sequences for entries named in this document (tags omitted).
UniProt O75762, whole entry R3C/R58T/K186N: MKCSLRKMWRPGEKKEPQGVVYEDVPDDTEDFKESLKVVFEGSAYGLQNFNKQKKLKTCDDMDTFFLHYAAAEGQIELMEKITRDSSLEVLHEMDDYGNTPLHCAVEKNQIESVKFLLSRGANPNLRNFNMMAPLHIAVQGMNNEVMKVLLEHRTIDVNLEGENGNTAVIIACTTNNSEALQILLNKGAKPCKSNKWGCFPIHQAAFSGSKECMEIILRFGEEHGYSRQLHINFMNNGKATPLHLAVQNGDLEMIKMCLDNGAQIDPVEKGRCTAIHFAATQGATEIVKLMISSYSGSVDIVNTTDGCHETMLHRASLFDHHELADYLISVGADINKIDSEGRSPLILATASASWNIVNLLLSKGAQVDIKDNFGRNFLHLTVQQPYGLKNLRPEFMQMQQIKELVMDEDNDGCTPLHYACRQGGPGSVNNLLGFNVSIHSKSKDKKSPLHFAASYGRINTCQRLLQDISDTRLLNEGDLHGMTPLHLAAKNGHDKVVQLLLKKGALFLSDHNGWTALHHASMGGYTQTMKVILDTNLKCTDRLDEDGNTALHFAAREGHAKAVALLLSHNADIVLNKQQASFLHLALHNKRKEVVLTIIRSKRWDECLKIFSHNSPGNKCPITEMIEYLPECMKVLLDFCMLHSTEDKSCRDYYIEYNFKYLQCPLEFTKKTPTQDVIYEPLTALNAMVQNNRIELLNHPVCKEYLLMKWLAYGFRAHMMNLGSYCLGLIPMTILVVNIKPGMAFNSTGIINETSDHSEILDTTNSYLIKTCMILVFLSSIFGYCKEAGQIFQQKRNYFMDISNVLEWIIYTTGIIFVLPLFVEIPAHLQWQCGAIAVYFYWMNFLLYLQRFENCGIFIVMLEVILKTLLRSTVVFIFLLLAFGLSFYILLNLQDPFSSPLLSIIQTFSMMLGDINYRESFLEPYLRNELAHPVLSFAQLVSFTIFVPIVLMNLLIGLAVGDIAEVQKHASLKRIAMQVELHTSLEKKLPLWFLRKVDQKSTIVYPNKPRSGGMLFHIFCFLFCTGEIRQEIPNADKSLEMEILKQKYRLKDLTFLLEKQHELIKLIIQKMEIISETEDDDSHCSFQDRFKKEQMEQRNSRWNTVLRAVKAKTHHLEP

Biological target: T1, human TRPA1 (polypeptide of SEQ ID NO:2) (Homo sapiens, UniProt O75762, K186N/R3C/R58T)
T1 construct: expressed in transfected cells; host or cells: CHO-K1 cells, transient transfection of the pcDNA3.1(+) human TRPA1 vector
Test: Intracellular calcium by FLIPR in CHO-K1 cells expressing human TRPA1 (activator screening)
Format: cell-based

With `O=C/C=C/c1ccccc1` [cinnamic aldehyde] the EC50 was 22.5 µM and the “change in intracellular calcium concentration” value (CHO-K1 cells expressing human TRPA1, FLIPR, Fluo3-AM) was “responded specifically (elevation of intracellular calcium concentration)”.
